Results as given in EP4834878A1, “AMIDE DERIVATIVE, PREPARATION METHOD THEREFOR AND USE THEREOF” (dated 2026).
pIC50: −log10 of the molar value. Blank lines part the entries; values can stand above or below the compound they belong to.

Chains of the proteins cited; added tags and fusions are not shown.
UniProt P21397, whole entry: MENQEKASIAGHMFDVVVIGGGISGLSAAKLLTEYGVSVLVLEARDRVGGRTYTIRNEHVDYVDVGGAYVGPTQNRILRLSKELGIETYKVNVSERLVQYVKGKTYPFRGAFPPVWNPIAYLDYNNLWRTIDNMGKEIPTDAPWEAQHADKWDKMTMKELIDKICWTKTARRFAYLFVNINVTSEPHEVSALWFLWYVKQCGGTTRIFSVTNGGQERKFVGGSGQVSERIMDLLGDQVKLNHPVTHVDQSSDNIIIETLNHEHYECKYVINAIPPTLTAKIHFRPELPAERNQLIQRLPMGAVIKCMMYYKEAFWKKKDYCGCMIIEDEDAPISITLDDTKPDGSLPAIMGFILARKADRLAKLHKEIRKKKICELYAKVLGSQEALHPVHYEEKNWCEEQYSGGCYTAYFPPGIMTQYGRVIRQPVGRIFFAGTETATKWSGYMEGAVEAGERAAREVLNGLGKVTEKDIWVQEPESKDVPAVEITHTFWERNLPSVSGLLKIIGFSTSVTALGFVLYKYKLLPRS
UniProt P27338, whole entry: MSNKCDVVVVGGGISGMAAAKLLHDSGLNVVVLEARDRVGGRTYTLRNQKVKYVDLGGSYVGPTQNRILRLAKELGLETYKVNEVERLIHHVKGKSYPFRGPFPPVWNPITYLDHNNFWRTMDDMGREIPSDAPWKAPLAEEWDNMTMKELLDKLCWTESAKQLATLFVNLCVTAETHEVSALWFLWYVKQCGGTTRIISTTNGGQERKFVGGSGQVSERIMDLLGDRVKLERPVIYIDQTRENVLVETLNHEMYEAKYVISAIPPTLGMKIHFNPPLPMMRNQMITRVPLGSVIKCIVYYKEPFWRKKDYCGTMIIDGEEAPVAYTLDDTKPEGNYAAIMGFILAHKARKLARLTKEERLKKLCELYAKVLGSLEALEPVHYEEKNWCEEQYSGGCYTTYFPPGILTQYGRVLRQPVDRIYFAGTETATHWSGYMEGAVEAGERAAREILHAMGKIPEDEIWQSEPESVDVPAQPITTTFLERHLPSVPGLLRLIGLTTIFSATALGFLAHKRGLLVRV

Assays:
DIO mice = test: Test of weight-lowering efficacy of compounds in DIO mice; conditions: 10 mg/kg intragastric once daily; for Mouse weight: group average
MAO-A = MAO-A (Homo sapiens, UniProt P21397); test: Determination of inhibitory activity of compounds against MAO-A (MAO-Glo Assay, luminescence); conditions: read-out: MAO-A IC50; human monoamine oxidase A, 30 min pre-incubation; compounds in free form
MAO-B = MAO-B (Homo sapiens, UniProt P27338); test: Determination of inhibitory activity of compounds against MAO-B (Amplex Red Monoamine Oxidase Assay Kit, fluorescence); conditions: read-out: MAO-B IC50, benzylamine substrate, 30 min pre-incubation, compounds in free form
[1] = day 0, methanesulfonate salt form
[2] = day 0 vs day 0, methanesulfonate salt form
[3] = day 1, methanesulfonate salt form
[4] = day 1 vs day 0, methanesulfonate salt form
[5] = day 2, methanesulfonate salt form
[6] = day 2 vs day 0, methanesulfonate salt form
[7] = day 3, methanesulfonate salt form
[8] = day 3 vs day 0, methanesulfonate salt form
[9] = day 4, methanesulfonate salt form
[10] = day 4 vs day 0, methanesulfonate salt form
[11] = day 5, methanesulfonate salt form
[12] = day 5 vs day 0, methanesulfonate salt form
[13] = day 6, methanesulfonate salt form
[14] = day 6 vs day 0, methanesulfonate salt form
[15] = day 7, methanesulfonate salt form
[16] = day 7 vs day 0, methanesulfonate salt form
[17] = day 8, methanesulfonate salt form
[18] = day 8 vs day 0, methanesulfonate salt form
[19] = day 9, methanesulfonate salt form
[20] = day 9 vs day 0, methanesulfonate salt form
[21] = day 10, methanesulfonate salt form
[22] = day 10 vs day 0, methanesulfonate salt form
[23] = day 11, methanesulfonate salt form
[24] = day 11 vs day 0, methanesulfonate salt form
[25] = day 12, methanesulfonate salt form
[26] = day 12 vs day 0, methanesulfonate salt form
[27] = day 13, methanesulfonate salt form
[28] = day 13 vs day 0, methanesulfonate salt form
[29] = day 14, methanesulfonate salt form
[30] = day 14 vs day 0, methanesulfonate salt form
[31] = day 15, methanesulfonate salt form
[32] = day 15 vs day 0, methanesulfonate salt form
[33] = day 16, methanesulfonate salt form
[34] = day 16 vs day 0, methanesulfonate salt form
[35] = day 17, methanesulfonate salt form
[36] = day 17 vs day 0, methanesulfonate salt form
[37] = day 18, methanesulfonate salt form
[38] = day 18 vs day 0, methanesulfonate salt form
[39] = day 19, methanesulfonate salt form
[40] = day 19 vs day 0, methanesulfonate salt form
[41] = day 20, methanesulfonate salt form
[42] = day 20 vs day 0, methanesulfonate salt form
[43] = day 21, methanesulfonate salt form
[44] = day 21 vs day 0, methanesulfonate salt form
[45] = day 22, methanesulfonate salt form
[46] = day 22 vs day 0, methanesulfonate salt form
[47] = day 23, methanesulfonate salt form
[48] = day 23 vs day 0, methanesulfonate salt form
[49] = day 24, methanesulfonate salt form
[50] = day 24 vs day 0, methanesulfonate salt form

SMILES: C[C@H](NCc1ccc(-c2ccc(C(F)(F)F)cc2)cc1)C(N)=O
Mouse weight (DIO mice; [1]): 49.7 g | Mouse weight change (DIO mice; [2]): 0 g | Mouse weight change rate (%) (DIO mice; [2]): 0% | Mouse weight (DIO mice; [3]): 50.1 g | Mouse weight change (DIO mice; [4]): 0.4 g | Mouse weight change rate (%) (DIO mice; [4]): 0.8% | Mouse weight (DIO mice; [5]): 49.4 g | Mouse weight change (DIO mice; [6]): -0.3 g | Mouse weight change rate (%) (DIO mice; [6]): -0.6% | Mouse weight (DIO mice; [7]): 49.5 g | Mouse weight change (DIO mice; [8]): -0.2 g | Mouse weight change rate (%) (DIO mice; [8]): -0.4% | Mouse weight (DIO mice; [9]): 49.1 g | Mouse weight change (DIO mice; [10]): -0.6 g | Mouse weight change rate (%) (DIO mice; [10]): -1.2% | Mouse weight (DIO mice; [11]): 49.2 g | Mouse weight change (DIO mice; [12]): -0.5 g | Mouse weight change rate (%) (DIO mice; [12]): -1% | Mouse weight (DIO mice; [13]): 49.1 g | Mouse weight change (DIO mice; [14]): -0.6 g | Mouse weight change rate (%) (DIO mice; [14]): -1.2% | Mouse weight (DIO mice; [15]): 48.7 g | Mouse weight change (DIO mice; [16]): -1.0 g | Mouse weight change rate (%) (DIO mice; [16]): -2% | Mouse weight (DIO mice; [17]): 48.8 g | Mouse weight change (DIO mice; [18]): -0.9 g | Mouse weight change rate (%) (DIO mice; [18]): -1.8% | Mouse weight (DIO mice; [19]): 48.7 g | Mouse weight change (DIO mice; [20]): -1.0 g | Mouse weight change rate (%) (DIO mice; [20]): -2% | Mouse weight (DIO mice; [21]): 48.8 g | Mouse weight change (DIO mice; [22]): -0.9 g | Mouse weight change rate (%) (DIO mice; [22]): -1.8% | Mouse weight (DIO mice; [23]): 48.9 g | Mouse weight change (DIO mice; [24]): -0.8 g | Mouse weight change rate (%) (DIO mice; [24]): -1.6% | Mouse weight (DIO mice; [25]): 48.7 g | Mouse weight change (DIO mice; [26]): -1.0 g | Mouse weight change rate (%) (DIO mice; [26]): -2% | Mouse weight (DIO mice; [27]): 48.4 g | Mouse weight change (DIO mice; [28]): -1.3 g | Mouse weight change rate (%) (DIO mice; [28]): -2.6% | Mouse weight (DIO mice; [29]): 48.1 g | Mouse weight change (DIO mice; [30]): -1.6 g | Mouse weight change rate (%) (DIO mice; [30]): -3.2% | Mouse weight (DIO mice; [31]): 48.4 g | Mouse weight change (DIO mice; [32]): -1.3 g | Mouse weight change rate (%) (DIO mice; [32]): -2.6% | Mouse weight (DIO mice; [33]): 48.1 g | Mouse weight change (DIO mice; [34]): -1.6 g | Mouse weight change rate (%) (DIO mice; [34]): -3.2% | Mouse weight (DIO mice; [35]): 48.3 g | Mouse weight change (DIO mice; [36]): -1.4 g | Mouse weight change rate (%) (DIO mice; [36]): -2.8% | Mouse weight (DIO mice; [37]): 48.3 g | Mouse weight change (DIO mice; [38]): -1.4 g | Mouse weight change rate (%) (DIO mice; [38]): -2.8% | Mouse weight (DIO mice; [39]): 48.5 g | Mouse weight change (DIO mice; [40]): -1.2 g | Mouse weight change rate (%) (DIO mice; [40]): -2.4% | Mouse weight (DIO mice; [41]): 48.4 g | Mouse weight change (DIO mice; [42]): -1.3 g | Mouse weight change rate (%) (DIO mice; [42]): -2.6% | Mouse weight (DIO mice; [43]): 48.0 g | Mouse weight change (DIO mice; [44]): -1.7 g | Mouse weight change rate (%) (DIO mice; [44]): -3.4% | Mouse weight (DIO mice; [45]): 48.0 g | Mouse weight change (DIO mice; [46]): -1.7 g | Mouse weight change rate (%) (DIO mice; [46]): -3.4% | Mouse weight (DIO mice; [47]): 47.5 g | Mouse weight change (DIO mice; [48]): -2.2 g | Mouse weight change rate (%) (DIO mice; [48]): -4.4% | Mouse weight (DIO mice; [49]): 47.2 g | Mouse weight change (DIO mice; [50]): -2.5 g | Mouse weight change rate (%) (DIO mice; [50]): -5% | pIC50 (MAO-A): < 5.00

SMILES: NC(=O)C1(NCc2ccc(-c3ccc(C(F)(F)F)cc3)cc2)COC1
pIC50 (MAO-B): 7.00 to 7.30

SMILES: C[C@H](NCc1ccc(-c2ccc(Cl)c(Cl)c2)cc1)C(N)=O
pIC50 (MAO-B): 7.00 to 7.30

SMILES: C[C@H](NCc1ccc(-c2ccc(C(F)(F)F)cc2)cc1Cl)C(N)=O
pIC50 (MAO-A): 5.00 to 5.70 | pIC50 (MAO-B): 7.00 to 7.30

SMILES: C[C@H](NCc1ccc(-c2ccc(C(F)(F)F)s2)cc1)C(N)=O
pIC50 (MAO-B): 7.00 to 7.30

Now from value to compound, other results behind:

pIC50 (MAO-A): < 5.00 | pIC50 (MAO-B): > 7.30
SMILES: NC(=O)[C@@H]1CCN1Cc1ccc(-c2ccc(C(F)(F)F)cc2)cc1

pIC50 (MAO-A): < 5.00 | pIC50 (MAO-B): > 7.30
SMILES: C[C@@H](C(N)=O)N1Cc2ccc(-c3ccc(C(F)(F)F)cc3)cc2C1

pIC50 (MAO-A): < 5.00 | pIC50 (MAO-B): > 7.30
SMILES: C[C@H](NCc1ccc(-c2ccc(C(F)(F)F)cc2)cc1F)C(N)=O
Mouse weight (DIO mice; [1]): 50.1 g | Mouse weight change (DIO mice; [2]): 0 g | Mouse weight change rate (%) (DIO mice; [2]): 0% | Mouse weight (DIO mice; [3]): 50.1 g | Mouse weight change (DIO mice; [4]): 0 g | Mouse weight change rate (%) (DIO mice; [4]): 0% | Mouse weight (DIO mice; [5]): 49.6 g | Mouse weight change (DIO mice; [6]): -0.5 g | Mouse weight change rate (%) (DIO mice; [6]): -1% | Mouse weight (DIO mice; [7]): 49.4 g | Mouse weight change (DIO mice; [8]): -0.7 g | Mouse weight change rate (%) (DIO mice; [8]): -1.4% | Mouse weight (DIO mice; [9]): 49.8 g | Mouse weight change (DIO mice; [10]): -0.3 g | Mouse weight change rate (%) (DIO mice; [10]): -0.6% | Mouse weight (DIO mice; [11]): 49.1 g | Mouse weight change (DIO mice; [12]): -1.0 g | Mouse weight change rate (%) (DIO mice; [12]): -2% | Mouse weight (DIO mice; [13]): 49.1 g | Mouse weight change (DIO mice; [14]): -1.0 g | Mouse weight change rate (%) (DIO mice; [14]): -2% | Mouse weight (DIO mice; [15]): 48.8 g | Mouse weight change (DIO mice; [16]): -1.3 g | Mouse weight change rate (%) (DIO mice; [16]): -2.6% | Mouse weight (DIO mice; [17]): 48.9 g | Mouse weight change (DIO mice; [18]): -1.2 g | Mouse weight change rate (%) (DIO mice; [18]): -2.4% | Mouse weight (DIO mice; [19]): 48.7 g | Mouse weight change (DIO mice; [20]): -1.4 g | Mouse weight change rate (%) (DIO mice; [20]): -2.8% | Mouse weight (DIO mice; [21]): 48.8 g | Mouse weight change (DIO mice; [22]): -1.3 g | Mouse weight change rate (%) (DIO mice; [22]): -2.6% | Mouse weight (DIO mice; [23]): 48.6 g | Mouse weight change (DIO mice; [24]): -1.5 g | Mouse weight change rate (%) (DIO mice; [24]): -3% | Mouse weight (DIO mice; [25]): 48.4 g | Mouse weight change (DIO mice; [26]): -1.7 g | Mouse weight change rate (%) (DIO mice; [26]): -3.4% | Mouse weight (DIO mice; [27]): 48.1 g | Mouse weight change (DIO mice; [28]): -2.0 g | Mouse weight change rate (%) (DIO mice; [28]): -4% | Mouse weight (DIO mice; [29]): 47.8 g | Mouse weight change (DIO mice; [30]): -2.3 g | Mouse weight change rate (%) (DIO mice; [30]): -4.6% | Mouse weight (DIO mice; [31]): 47.6 g | Mouse weight change (DIO mice; [32]): -2.5 g | Mouse weight change rate (%) (DIO mice; [32]): -5% | Mouse weight (DIO mice; [33]): 47.2 g | Mouse weight change (DIO mice; [34]): -2.9 g | Mouse weight change rate (%) (DIO mice; [34]): -5.8% | Mouse weight (DIO mice; [35]): 47.2 g | Mouse weight change (DIO mice; [36]): -2.9 g | Mouse weight change rate (%) (DIO mice; [36]): -5.8% | Mouse weight (DIO mice; [37]): 46.7 g | Mouse weight change (DIO mice; [38]): -3.4 g | Mouse weight change rate (%) (DIO mice; [38]): -6.8% | Mouse weight (DIO mice; [39]): 46.7 g | Mouse weight change (DIO mice; [40]): -3.4 g | Mouse weight change rate (%) (DIO mice; [40]): -6.8% | Mouse weight (DIO mice; [41]): 46.1 g | Mouse weight change (DIO mice; [42]): -4.0 g | Mouse weight change rate (%) (DIO mice; [42]): -8% | Mouse weight (DIO mice; [43]): 45.2 g | Mouse weight change (DIO mice; [44]): -4.9 g | Mouse weight change rate (%) (DIO mice; [44]): -9.8% | Mouse weight (DIO mice; [45]): 45.0 g | Mouse weight change (DIO mice; [46]): -5.1 g | Mouse weight change rate (%) (DIO mice; [46]): -10.2% | Mouse weight (DIO mice; [47]): 44.5 g | Mouse weight change (DIO mice; [48]): -5.6 g | Mouse weight change rate (%) (DIO mice; [48]): -11.2% | Mouse weight (DIO mice; [49]): 44.5 g | Mouse weight change (DIO mice; [50]): -5.6 g | Mouse weight change rate (%) (DIO mice; [50]): -11.2%
